# Measured values from patent publication US20220242812A1, “SWELL1-LRRC8 COMPLEX MODULATORS” (Washington University, priority 2019, published 2022).
# Columns and labels:
# [1] = Caco-2 permeability assay; type: in vitro ADME; details: human, read-out: Caco-2 efflux ratio B-A/A-B
# Procedure: In vitro ADMET studies were performed at Charles River Laboratory as outlined below. For the Caco-2 permeability assay, the cells were cultured (DMEM, 10% FBS, 1% L-Glutamax and 1% PenStrep) for 21 days. HBSS was used as the transport buffer and the TEER measurements were taken before the start of the assay. Compounds were added apical side to determine apical to basolateral transport (A-B) and basal side to determine basolateral to apical transport (B-A). Samples (10 μL) were collected at time 0 and 2 h and diluted (5×) with transport buffer. After the quenching reaction, the samples were further diluted in MilliQ water for bioanalysis. […] The analyte levels (peak area ratios) were measured on apical (A) and basolateral (B) sides at To and T2h-A-B and B-A fluxes were calculated averaging 3 individual measurements. Apparent permeability (Papp, cm/sec) was calculated as dQ (flux)/(dt*area*concentration). The efflux ratio was calculated by Papp(B-A)/Papp(B-A). […] The supernatant was diluted in water and further analyzed in LC/MS autosampler. Half-life (T1/2) was calculated by the formula 0.692/slope where slope is ln(% remaining relative to Tzero vs time). Intrinsic clearance was calculated using the (CLn1)=T112*1/initial concentration*mg prep/g liver*g liver/kg body weight. […]
# [2] = In vivo pharmacokinetics in mice
# Procedure: Male C57/BL6 mice were used in the study and assessed for a single dose (5 mg/kg) administration. The compounds were prepared in Cremaphor for i.p. and p.o dose routes and in 5% ethanol, 10% Tween-20 and water mix for i.v. route at a final concentration of 1 mg/ml. […] The blood samples were collected in tubes with K2 EDTA anticoagulant and further processed to collect plasma by centrifugation at 3500 rpm at 5° C. for 10 min Samples were further processed in LC/MS to determine the concentration of the compounds. Non-compartmental analysis was performed to obtain the PK parameters using the PKPlus software package (Simulation Plus). The area under the plasma concentration-time curve (AUCint) is calculated from time 0 to infinity where the Cmax is the maximal concentration achieved in plasma and t112 is the terminal elimination half-life. Oral bioavailability was calculated as AUCorailAUC1v*100.
# [3] = test system: HFD-induced T2D mice; assay: Metabolic phenotyping (fasting glucose, GTT, ITT) in HFD-fed T2D mice; type: in vivo; details: HFD-fed T2D C57 mice, 5 mg/kg/day p.o.
# Procedure: All compounds were dissolved in Kolliphor® EL (Sigma, #C5135). Either vehicle (Kolliphor® EL), SN-401 (DCPIB, 5 mg/kg of body weight/day, Tocris, D1540), SN-403, SN-406, SN-407 or SN071 were administered i.p. as indicated using 1 cc syringe/26G×½ inch needle daily for 4-10 days, and in one experiment, SN-401 was administered daily for 8 weeks. SN-401, formulated as above, was also administered by oral gavage at 5 mg/kg/day for 5 days using a 20G×1.5 inch reusable metal gavage needle.
# Mice were fasted for 6 h prior to glucose tolerance tests (GTT). Baseline glucose levels at 0 min timepoint (fasting glucose, FG) were measured from blood sample collected from tail snipping using glucometer (Bayer Healthcare LLC). Either 1 g or 0.75 g D-Glucose/kg body weight were injected (i.p.) for lean or HFD mice, respectively and glucose levels were measured at 7, 15, 30, 60, 90 and 120 min timepoints after injection. […] Similar to GTTs, the baseline blood glucose levels were measured at 0 min timepoint and 15, 30, 60, 90 and 120 min timepoints post-injection (i.p.) of insulin (HumulinR, 1 U/kg body weight for lean mice or 1.25 U/kg body weight for HFD mice). […] The collected plasma was then measured for insulin content by using Ultra-Sensitive Mouse Insulin ELISA Kit (Crystal Chem, #90080). All mice and treatment groups were assessed blindly while performing experiments.
# [4] = test system: ICl,SWELL; details: guinea-pig atrial cells, channel inhibitory concentrations ~5-10 μM; cited from earlier work
smiles,measurement,setting,value
"CCCCC1(C2CCCC2)Cc2cc(OCCCC(=O)O)c(Cl)c(Cl)c2C1=O (centres unmarked) [SN-401, 4-((2-butyl-6,7-dichloro-2-cyclopentyl-1-oxo-2,3-dihydro-1H-inden-5-yl)oxy)butanoic acid]",efflux ratio at 2 h,[1],1.44
same,"Plasma concentrations relative to ICl,SWELL inhibitory concentrations",[2]; 5 mg/kg i.p. dosing,transiently approach
same,"Plasma concentrations relative to ICl,SWELL inhibitory concentrations",[2]; 5 mg/kg p.o. dosing,remain well below
same,In vivo therapeutic efficacy after oral gavage,[3],fully retains
same,"Selectivity for ICl,SWELL",[4],selective
